## AlphaSeq binding of Ab-14 heavy chain variants to a spike HR2 peptide

Binding partner: SARS-CoV-2 spike HR2 peptide, sequence PDVDLGDISGINAS.

Parent: Ab-14, a human scFv built as VH, a (GGGGS)3 linker, VL. Only the CDRs of the heavy chain vary.
VH: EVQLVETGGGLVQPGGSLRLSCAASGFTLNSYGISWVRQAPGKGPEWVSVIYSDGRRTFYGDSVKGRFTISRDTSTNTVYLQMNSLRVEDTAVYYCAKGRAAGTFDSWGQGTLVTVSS
VL: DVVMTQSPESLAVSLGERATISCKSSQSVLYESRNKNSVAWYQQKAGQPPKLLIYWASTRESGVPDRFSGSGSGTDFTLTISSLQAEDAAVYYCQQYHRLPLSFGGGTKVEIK

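Phage display of a naive human antibody library on the peptide gave the parent. In library AAYL49, one, two or three CDR residues were substituted; doubles and triples were drawn at random. AlphaSeq pools MATa yeast showing the antibodies with MATalpha yeast showing the peptide. Pairs that bind mate more often; barcode pairs of the diploids are counted by sequencing. A regression on co-assayed BCL2-family reference pairs converts the normalised counts of each replicate to an apparent Kd. The assay was run in three technical replicates.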

Substitutions are numbered in sequence along the VH above, starting at 1 (not Kabat).
Values are log10 of the apparent Kd in nM; lower means stronger binding.
Replicates are averaged; those with no signal do not enter the mean.
A pair that was not seen in any replicate is written "not detected"; this usually means weak binding, but a binder can also be missed.
Nonspecific signal, from three strains lacking the peptide, appeared in 15% of pairings of library AAYL49, centred on 4.06 (5% of these signals below 2.83); values are not corrected for it. For each scFv, signals with the empty controls are counted beside the result.

| changes | mean, log10 nM | replicates with signal | empty controls |
|---|---|---|---|
| F27C T28C F105I | 3.81 | 1 of 3 | 2 of 9 |
| S31Y S35Q A101S | 3.31 | 1 of 3 | 0 of 9 |
| T28D G55W V64I | not detected | 0 of 3 | 3 of 9 |
| Y52Q T104F S107Y | not detected | 0 of 3 | 0 of 9 |
| G33R Y60E S107C | 4.49 | 1 of 3 | 2 of 9 |
| L29Q G55A | not detected | 0 of 3 | 0 of 9 |
| I51W G55V R100V | not detected | 0 of 3 | 0 of 9 |
| G99T A102P S107K | 4.40 | 2 of 3 | 2 of 9 |
| F27S K65E D106L | 3.15 | 1 of 3 | 5 of 9 |
| V50R Y52C D106W | 3.58 | 3 of 3 | 0 of 9 |
| T28A I34D G55Q | 5.27 | 1 of 3 | 4 of 9 |
| N30F S63L G99R | 2.29 | 2 of 3 | 0 of 9 |
| G33M G61D T104V | not detected | 0 of 3 | 0 of 9 |
| S31Y G61M A102V | not detected | 0 of 3 | 0 of 9 |
| G26W F27S F105Y | 1.54 | 3 of 3 | 0 of 9 |
| V50Q R56S D62K | 4.33 | 1 of 3 | 0 of 9 |
| N30C G99L G103S | 2.92 | 3 of 3 | 0 of 9 |
| T28P D54R A102E | 4.63 | 2 of 3 | 3 of 9 |
| G55Y R57H D106R | 4.36 | 2 of 3 | 2 of 9 |
| K65Y F105Q | not detected | 0 of 3 | 0 of 9 |
| S35M K65A R100S | 3.61 | 2 of 3 | 4 of 9 |
| G33T S63A V64D | 5.12 | 1 of 3 | 1 of 9 |
| S31M Y52W G99Q | not detected | 0 of 3 | 0 of 9 |
| F27I S53M R57F | not detected | 0 of 3 | 3 of 9 |
| Y52T V64D T104F | not detected | 0 of 3 | 3 of 9 |
| R57S A102K | not detected | 0 of 3 | 0 of 9 |
| Y32F S35M G99H | not detected | 0 of 3 | 2 of 9 |
| S31I Y52G | not detected | 0 of 3 | 0 of 9 |
| D62Q K65A G99E | not detected | 0 of 3 | 0 of 9 |
| Y52K D62R G103N | not detected | 0 of 3 | 0 of 9 |
| D54Y R56N T58K | not detected | 0 of 3 | 2 of 9 |
| T58W F59V Y60P | not detected | 0 of 3 | 0 of 9 |
| I51Q R56L F105R | not detected | 0 of 3 | 0 of 9 |
| D62H K65V S107L | not detected | 0 of 3 | 0 of 9 |
| G26L S63H | 2.07 | 3 of 3 | 1 of 9 |
| F27T I34A G99E | 3.43 | 1 of 3 | 3 of 9 |
| G33M S35N A102V | not detected | 0 of 3 | 0 of 9 |
| S35K Y52H F59V | not detected | 0 of 3 | 0 of 9 |
| D62Y A102G T104W | 4.93 | 2 of 3 | 6 of 9 |
| V50K D62A S63I | not detected | 0 of 3 | 0 of 9 |
| G55D V64E A101G | not detected | 0 of 3 | 4 of 9 |
| S31F R56C F59M | 4.24 | 1 of 3 | 3 of 9 |
| Y60F D62F T104W | 4.15 | 1 of 3 | 2 of 9 |
| S53E K65P S107I | 3.75 | 2 of 3 | 4 of 9 |
| S31L V64E S107D | not detected | 0 of 3 | 0 of 9 |
| V50D K65P A101V | 3.67 | 1 of 3 | 2 of 9 |
| G26M Y52C A102Q | not detected | 0 of 3 | 0 of 9 |
| I34A Y60K R100E | 3.66 | 1 of 3 | 1 of 9 |
| S35R Y52D S53P | not detected | 0 of 3 | 0 of 9 |
| D54N R57M | 3.55 | 3 of 3 | 3 of 9 |
| S53G R56H R57K | 4.07 | 2 of 3 | 0 of 9 |
| T28A S63P D106F | 1.85 | 3 of 3 | 3 of 9 |
| F27D S63H | 0.84 | 3 of 3 | 2 of 9 |
| F27G V64R G103K | 3.67 | 2 of 3 | 1 of 9 |
| G26I G103H | not detected | 0 of 3 | 1 of 9 |
| Y32D R56F G99S | 3.67 | 1 of 3 | 2 of 9 |
| D54N A101H A102M | not detected | 0 of 3 | 0 of 9 |
| G26T R57Q A101Q | 4.89 | 1 of 3 | 0 of 9 |
| N30M K65W D106W | 3.60 | 3 of 3 | 5 of 9 |
| V50N T58S | not detected | 0 of 3 | 1 of 9 |
| V64C A102W D106Y | 4.74 | 3 of 3 | 7 of 9 |
| G26Y N30H A101V | 2.06 | 3 of 3 | 1 of 9 |
| R57C A102K | not detected | 0 of 3 | 5 of 9 |
| T28D G33H G61H | not detected | 0 of 3 | 2 of 9 |
| F27K G103V | 2.35 | 3 of 3 | 0 of 9 |
| I34W D62S | not detected | 0 of 3 | 1 of 9 |
| G26C I51G Y52K | not detected | 0 of 3 | 1 of 9 |
| S31Q Y52Q G55K | not detected | 0 of 3 | 4 of 9 |
| V50C R100K A102D | not detected | 0 of 3 | 0 of 9 |
| D54R F59W D106L | not detected | 0 of 3 | 1 of 9 |
| V50W D106S | not detected | 0 of 3 | 0 of 9 |
| F27T N30D G103L | not detected | 0 of 3 | 0 of 9 |
| Y52C G55E G99R | not detected | 0 of 3 | 1 of 9 |
| F27S R100W A101Y | 1.30 | 3 of 3 | 2 of 9 |
| N30F V50I R56A | 2.24 | 1 of 3 | 0 of 9 |
| G26D I51P | 4.88 | 1 of 3 | 0 of 9 |
| Y32C Y52I G103Q | 3.79 | 1 of 3 | 1 of 9 |
| R56H Y60N T104E | 5.03 | 1 of 3 | 1 of 9 |

A selection of 12 entries from above:

| changes | mean, log10 nM | replicates with signal | empty controls |
|---|---|---|---|
| S31Q Y52Q G55K | not detected | 0 of 3 | 4 of 9 |
| F27T N30D G103L | not detected | 0 of 3 | 0 of 9 |
| V50D K65P A101V | 3.67 | 1 of 3 | 2 of 9 |
| Y32C Y52I G103Q | 3.79 | 1 of 3 | 1 of 9 |
| F27S R100W A101Y | 1.30 | 3 of 3 | 2 of 9 |
| R56H Y60N T104E | 5.03 | 1 of 3 | 1 of 9 |
| K65Y F105Q | not detected | 0 of 3 | 0 of 9 |
| Y52T V64D T104F | not detected | 0 of 3 | 3 of 9 |
| S35R Y52D S53P | not detected | 0 of 3 | 0 of 9 |
| G55D V64E A101G | not detected | 0 of 3 | 4 of 9 |
| N30F V50I R56A | 2.24 | 1 of 3 | 0 of 9 |
| S35M K65A R100S | 3.61 | 2 of 3 | 4 of 9 |

Parent in this assay: reference entry 0.65, copy in this library 4.11 (one replicate of three).

Data: MIT Lincoln Laboratory AlphaSeq set, Engelhart et al. 2022, doi:10.1038/s41597-022-01779-4, as distributed in FLAb.